Experimental data published in ChEMBL document CHEMBL1135401, “Pharmacophore mapping of a series of 2,4-diamino-5-deazapteridine inhibitors of Mycobacterium avium complex dihydrofolate reductase” (J Med Chem, 2002).

Molecular target: T1, Dihydrofolate reductase (Mycobacterium avium, UniProt O30463)
T1 sequence (O30463 whole entry): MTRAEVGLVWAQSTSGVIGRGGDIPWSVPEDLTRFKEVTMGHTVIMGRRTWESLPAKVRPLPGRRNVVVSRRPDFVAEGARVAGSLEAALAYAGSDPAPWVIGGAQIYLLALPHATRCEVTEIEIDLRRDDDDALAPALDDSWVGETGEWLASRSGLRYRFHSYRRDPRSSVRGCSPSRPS
Assay: Antimycobacterial activity against Mycobacterium avium complex dihydrofolate reductase (MAC DHFR)

Structure (SMILES)	IC50
Cc1cc(Cl)ccc1NCc1cnc2nc(N)nc(N)c2c1C	0.19 nM
CCOc1ccc(OCC)c(NCc2cnc3nc(N)nc(N)c3c2C)c1	0.84 nM
